# According to PubChem BioAssay AID504615 (Sanford-Burnham Center for Chemical Genomics, 2011):
# This is a selection; strong and weak results do not stand in their true shares. Calls of active or inactive are those of the source.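 Rule for the calls: active = signal rise of 40% or more at 20 µM, treated as a fluorescence artifact; inactive = the rest.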
# Assay: Rh110 fluorescence interference by putative Apaf-1 inhibitors, confirmation, artefact control for Apaf-1 inhibitor project, biochemical, 20 µM (AID 504615)
# Conditions: quenched caspase reaction, at 20 µM, active compounds read high
row,Compound,activation (fluorescence interference)
1,CC1=C2N=C(C=C3N=C(C(C)=C4[N-][C@@](C)([C@@H]5N=C1[C@](C)(CCC(=O)NC[C@@H](C)OP(=O)([O-])O[C@H]1[C@@H](O)[C@@H](n6cnc7cc(C)c(C)cc76)O[C@@H]1CO)[C@H]5CC(N)=O)[C@@](C)(CC(N)=O)[C@@H]4CCC(N)=O)[C@@](C)(CC(N)=O)[C@@H]3CCC(N)=O)C(C)(C)[C@@H]2CCC(N)=O.[C-]#N.[Co+3],inactive: -4.36%
2,O=[N+]([O-])c1cc([N+](=O)[O-])c(Nc2ccccn2)c([N+](=O)[O-])c1,inactive: 3.29%
